Results reported in ChEMBL document CHEMBL1135239, “Imidazo[5,1-f]triazin-4(3H)-ones, a new class of potent PDE 5 inhibitors” (Bioorg Med Chem Lett, 2002).

Molecular target: cGMP-specific 3',5'-cyclic phosphodiesterase (Homo sapiens, UniProt O76074)

IC50: 0.01 µM
SMILES: CCCOc1ccc(S(=O)(=O)N2CCN(C)CC2)cc1-c1nc2c(ncn2CCC)c(=O)[nH]1
